Binding of CDR-mutated scFvs to a peptide of the spike HR2 region

From the AlphaSeq antibody data of Engelhart et al. 2022 (doi:10.1038/s41597-022-01779-4), copy in the FLAb collection.

All variants were tested on one target, the spike HR2 peptide PDVDLGDISGINAS (SARS-CoV-2).

Ab-14 is the parent antibody, in scFv form: VH, then the linker GGGGSGGGGSGGGGS, then VL. The light chain is unchanged in all variants.
VH: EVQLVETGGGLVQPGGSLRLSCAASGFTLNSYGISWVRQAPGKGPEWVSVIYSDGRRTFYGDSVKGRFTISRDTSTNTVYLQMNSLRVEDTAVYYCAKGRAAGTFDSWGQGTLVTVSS
VL: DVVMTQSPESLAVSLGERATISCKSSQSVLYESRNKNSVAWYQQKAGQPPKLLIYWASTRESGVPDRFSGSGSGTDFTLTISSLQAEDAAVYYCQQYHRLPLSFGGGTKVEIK

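The parent was found by panning a naive human phage display library on the peptide. AAYL49 was designed without a model: most single CDR substitutions and a random sample of double and triple ones. In AlphaSeq, yeast of one mating type display the scFv and yeast of the other type display the target. After mating in shaken culture at 30 °C for 16 h, diploids were selected and their barcode pairs sequenced. Read counts were normalised to the haploid input and turned into Kd by a linear fit to BCL2-family pairs of known affinity, for each replicate. The assay was run in three technical replicates.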

Variants are written as CDR1, CDR2 and CDR3 of the heavy chain (limits as in the source). Parent: GFTLNSYGIS, VIYSDGRRTFYGDSVK, GRAAGTFDS. This list gathers variants with a substitution at R57 (VH, numbered from residue 1). The Kd shown is the geometric mean over detected replicates; a lower Kd is a better binder. "nd" marks a missing value. The strain was present, yet no cells mated with the target were sequenced in any replicate, which points to weak or no binding. Background: pairings of library AAYL49 with three empty control strains gave a value in 15% of cases (median 11 µM, 5th percentile 680 nM). Values in that range, when seen in few replicates, are hard to tell from nonspecific mating.

GFTLNSYGIS | VIYSDGRTTFYGDSVC | GRAAGTFDE: 360 nM (1 of 3 replicates).
GFTLNSYGIS | VIYSDGRHTFYGMSVK | GRAAGTFDS: nd (0 of 3 replicates).
GFTLNSYGIY | VTYSDGRSTFYGDSVK | GRAAGTFDS: 4.9 µM (1 of 3 replicates).
GFTLNSYGIS | VIYSFGRYTFYGDSVK | GRAAETFDS: 520 µM (1 of 3 replicates).
GFTLNSYGIS | VIYSDGRATFLGKSVK | GRAAGTFDS: 10 µM (2 of 3 replicates).
GFTLNSYGAS | VIYSDGRCTFYGDSVK | GRAAGTMDS: 12 µM (2 of 3 replicates).
GFTLNSYGIS | VIYADGRVTFYGDSVL | GRAAGTFDS: 160 nM (3 of 3 replicates).
AFTLNSYGIS | VIYSDGRMTFYGDSVK | GRWAGTFDS: 48 µM (2 of 3 replicates).
GFTLNSYGIS | KIYSDGRPTFYGDSVK | GRAAGTMDS: 430 nM (1 of 3 replicates).
GFMLNSYGIS | VIYSDGRHTFYGDSVK | GRAAGTFDS: nd (0 of 3 replicates).
GFTLNSYGIV | VIYSDGYMTFYGDSVK | GRAAGTFDS: nd (0 of 3 replicates).
GFTLNSYGIS | FIYSDGRETPYGDSVK | GRAAGTFDS: nd (0 of 3 replicates).
GFTENSYGIS | VIYSDGRFTFRGDSVK | GRAAGTFDS: 32 µM (1 of 3 replicates).
GFTLNSYGIS | VIYYDGRDTFYGDSVK | GRAARTFDS: 140 µM (1 of 3 replicates).
GFTLNSYGIS | QIYSDGRGTFYGDEVK | GRAAGTFDS: nd (0 of 3 replicates).
GFTLNSYGIS | VIYSDGRATNYGDRVK | GRAAGTFDS: nd (0 of 3 replicates).
GFTLNSYGIN | VIYSDGRWTFYGDSVK | GRAANTFDS: nd (0 of 3 replicates).
GFTLNSYGIS | VIYSDGRFTFYGDSVK | GWAFGTFDS: 6.1 µM (2 of 3 replicates).
GFTLNSYGIS | VIYSHGRSTFYGDSVK | GRAAGTFDS: nd (0 of 3 replicates).
GFTLNSYGIS | VIYSDGRYMFYGDSVK | GRCAGTFDS: nd (0 of 3 replicates).
GFTLNSYGIS | VIYSDGRFTFRGDSVK | GRAAGTFDC: nd (0 of 3 replicates).
GFTLNSYGIN | VIYSDGRWTFYGDSVK | GRAAGTFDS: 120 µM (1 of 3 replicates).
GRTLNSYGIS | VIYSDGRYLFYGDSVK | GRAAGTFDS: nd (0 of 3 replicates).
GFTLNSYGIS | CIYSDGRMTFYGISVK | GRAAGTFDS: nd (0 of 3 replicates).
GFTLNSYGIS | VIYGDGHKTFYGDSVK | GRAAGTFDS: 12 µM (2 of 3 replicates).
GFTLNSYGIS | VIYSDGRMTFYGDSRK | GRAAGTFDC: 21 µM (1 of 3 replicates).
GFTLNSDGIS | VIYKDGRCTFYGDSVK | GRAAGTFDS: 20 µM (2 of 3 replicates).
GFTLNSYGIS | VIYSDGRHTFYGDSFK | GRAAVTFDS: 990 nM (2 of 3 replicates).
GFTLNSYGIS | VIYSDGRNTFYGDSVK | GRAAGWFDS: nd (0 of 3 replicates).
GFTLNSYGIS | VIYSQGRQTFYGDSDK | GRAAGTFDS: 38 µM (1 of 3 replicates).